Assay results published in patent publication US6603023B2 (priority 1996, dated 2003).
Counter-ions that a name gives are not always drawn. Like-named read-outs stand apart in the source and are kept apart here.

Columns and labels:
P388/Adr = type: cell-based, murine
Procedure: (§1) The drug-resistant cell lines were continuously cultured in the presence of the selecting agent, AD, DX, VBL or VM to maintain the drug resistant phenotypes. […] All cells were cultured in RPMI 1640-10% FBS at 37° C. 5% CO2 (see below).
(§2) The cells were cultured at an initial density of 5×10^4 cells/mL. They were maintained in a 5% CO2-humidified atmosphere at 37° C. in RPMI-1640 medium (GIBCO-BRL, Gaithersburg, Md.) containing penicillin (100 U/mL), streptomycin ([…]) (GIBCO-BRL) and 10% heat inactivate fetal bovine serum. Culture for cell suspension (such as for CCRF-CEM, P388 and sublines), were performed by the XTT-microculture tetrazonium method (Scudiero, D. A. et al., Cancer Res. 1988, 48, 4827-4833) in duplicate in 96-well microtiter plates.
(§3) 2′,3′-Bis(methoxy-4-nitro-5-sufophenyl)-5-[(phenylamino)carbonyl]2H-tetrazolium hyudroxide (XTT) was prepared at 1 mg/mL in prewarmed (37° C.) medium without serum. Phenazine methosulfate (PMS) and fresh XTT were mixed together to obtain 0.025 mM PMS-XTT solution (25 μL of the stock 5 mM PMS was added per 5 mL of 1 mg/mL XTT). Following a 72 h incubation, 50 μL of the assay aliquots were added to each well of the cell culture. After incubation at 37° C. for 4 h, absorbance at 450 nm and 630 nm was measured with a microplate reader (EL340, Bio-Tek Instruments, Inc., Winooski, Vt.).

DC-3F/ADX = type: cell-based, hamster
Procedure: The DC-3F hamster lung fibroblast cell line and its actinomycin D-selected sublines (DC-3F/ADII and DC-3F/ADX) were obtained from the Memorial Sloan-Kettering Cancer Center (MSKCC).
as §1
The cytotoxicity of the drug toward the monolayer cell cultures (such as DC-3F, MCF-7, SK-N-As and sublines) was determined in 96-well microtiter plates by the SRB method as described by Skehan and co-workers (Skehan, P., et al., J. Natl. Cancer Inst. 1990, 82, 1107-1112) for measuring the cellular protein content. […] Unbound dye was removed by acetic acid washes, and the protein-bound dye was extracted with an unbuffered Tris base (tris(hydroxy-methyl)aminomethane) for determination of absorbance at 570 nm in a 96-well microtiter plate reader. […] Data were analyzed with the median-effect plot (Chou, T.-C. & Talalay, P. T. (1984) Adv. Enzyme Regul. 22, 27-55) using a previously described computer program (Chou, J., & Chou T.-C. 1987, Dose-effect analysis with microcomputers: Quantitation of ED50, synergism, antagonism, low-dose risk, reception-ligand binding and enzyme kinetics, IBM-PC software and manual, Biosoft, Cambridge, U.K.). […]

CCRF-CEM/Taxol® = type: cell-based, human; details: Table 1A; CCRF-CEM/Taxol vs CCRF-CEM
Procedure: as §1, §2, §3

CCRF-CEM/VBL100 = type: cell-based, human; details: Table 1A; CCRF-CEM/VBL100 vs CCRF-CEM
Procedure: as §1, §2, §3

CCRF-CEM/VM1 = type: cell-based, human; details: Table 1A; CCRF-CEM/VM1 vs CCRF-CEM
Procedure: as §1, §2, §3

[1] = tested on: PC-3 Human Prostate Carcinoma; experiment: PC-3 xenograft; type: in vivo, nude mice; details: i.v./i.p. (order wraps over rows r11-r12)
MCF-7/Adr = type: cell-based, human
Procedure: Cultures were fixed with trichloroacetic acid and then stained for 30 min with 0.4% suforhodamine B dissolved in 1% acetic acid. Unbound dye was removed by acetic acid washes, and the protein-bound dye was extracted with an unbuffered Tris base (tris(hydroxy-methyl)aminomethane) for determination of absorbance at 570 nm in a 96-well microtiter plate reader. The experiments were carried out in duplicate. Each run entailed six to seven concentrations of the tested drugs.

[2] = tested on: human mammary carcinoma MX-1 xenograft; details: i.p., comparison with Adriamycin
Procedure: (§4) DMSO was used as a vehicle for epothilones. Each mouse received ≦40 μL DMSO in all experiments.
(§5) Athymic nude mice (nu/nu) were used for MX-1 and MCF-7/Adr human mammary carcinoma xenografts. Mice were obtained from Taconic Laboratory Animals and Service (Germantown, N.Y.: outbred, Swiss background).

[3] = tested on: MDR human mammary adenocarcinoma MCF-7/Adr xenograft
Procedure: as §4, §5

SK-N-FI = type: cell-based, human
Procedure: as §1
The cytotoxicity of the drug toward the monolayer cell cultures (such as DC-3F, MCF-7, SK-N-As and sublines) was determined in 96-well microtiter plates by the SRB method as described by Skehan and co-workers (Skehan, P., et al., J. Natl. Cancer Inst. 1990, 82, 1107-1112) for measuring the cellular protein content. Cultures were fixed with trichloroacetic acid and then stained for 30 min with 0.4% suforhodamine B dissolved in 1% acetic acid. Unbound dye was removed by acetic acid washes, and the protein-bound dye was extracted with an unbuffered Tris base (tris(hydroxy-methyl)aminomethane) for determination of absorbance at 570 nm in a 96-well microtiter plate reader. The experiments were carried out in duplicate. […] Data were analyzed with the median-effect plot (Chou, T.-C. & Talalay, P. T. (1984) Adv. Enzyme Regul. 22, 27-55) using a previously described computer program (Chou, J., & Chou T.-C. 1987, Dose-effect analysis with microcomputers: Quantitation of ED50, synergism, antagonism, low-dose risk, reception-ligand binding and enzyme kinetics, IBM-PC software and manual, Biosoft, Cambridge, U.K.).

## COc1cccc2c1C(=O)c1c(O)c3c(c(O)c1C2=O)C[C@@](O)(C(=O)CO)C[C@@H]3O[C@H]1C[C@H](N)[C@H](O)[C@H](C)O1 [Adriamycin, doxorubicin or adriamycin HCl]
P388/Adr; P388/Adr cells
  fold resistance vs parent P388: 482 fold
P388/Adr; Table 1C, P388/Adr vs P388/O
  folds of resistance (IC50 ratio vs parent cell line): (482x)
DC-3F/ADX; DC-3F/ADX cells
  fold resistance vs parent DC-3F: 124 fold
DC-3F/ADX; Table 1C, DC-3F/ADX vs DC-3F
  folds of resistance (IC50 ratio vs parent cell line): (124x)
CCRF-CEM/Taxol®
  (C)/(A) IC50 ratio: 2.3
CCRF-CEM/VBL100
  (B)/(A) IC50 ratio: 48
CCRF-CEM/VM1
  (D)/(A) IC50 ratio: 3.6
[1]
  Therapeutic effect Rank Order: Adriamycin
MCF-7/Adr; MCF-7/Adr cells
  fold resistance vs parent MCF-7: 3.8 fold
MCF-7/Adr; Table 1C, MCF-7/Adr vs MCF-7
  folds of resistance (IC50 ratio vs parent cell line): (3.8x)
[2]
  Therapeutic effect Rank Order: dEpoB > Adriamycin > Taxol ®
[3]; i.p. (order wraps over rows r13-r14)
  Therapeutic effect Rank Order: Adriamycin > Taxol ®
[3]; i.v. infusion (order wraps over rows r16-r17)
  Therapeutic effect Rank Order: Taxol ® > VBL, Adriamycin
SK-N-FI; SK-N-F1 cells
  fold resistance vs parent SK-N-As: 18 fold
SK-N-FI; Table 1C, SK-N-FI vs SK-N-As
  folds of resistance (IC50 ratio vs parent cell line): (18.4x)
